Results on 8 compounds are retold here after ChEMBL document CHEMBL1921795, “Discovery, synthesis, and structure-activity relationship development of a series of N-4-(2,5-dioxopyrrolidin-1-yl)phenylpicolinamides (VU0400195, ML182): characterization of a novel positive allosteric modulator of the metabotropic glutamate receptor 4 (mGlu(4)) with oral efficacy in an …” (J Med Chem, 2011).

Chains of the proteins cited; added tags and fusions are not shown. Lines headed by an entry give the natural chain unless they say otherwise; changes in a name come on top.
UniProt Q14833: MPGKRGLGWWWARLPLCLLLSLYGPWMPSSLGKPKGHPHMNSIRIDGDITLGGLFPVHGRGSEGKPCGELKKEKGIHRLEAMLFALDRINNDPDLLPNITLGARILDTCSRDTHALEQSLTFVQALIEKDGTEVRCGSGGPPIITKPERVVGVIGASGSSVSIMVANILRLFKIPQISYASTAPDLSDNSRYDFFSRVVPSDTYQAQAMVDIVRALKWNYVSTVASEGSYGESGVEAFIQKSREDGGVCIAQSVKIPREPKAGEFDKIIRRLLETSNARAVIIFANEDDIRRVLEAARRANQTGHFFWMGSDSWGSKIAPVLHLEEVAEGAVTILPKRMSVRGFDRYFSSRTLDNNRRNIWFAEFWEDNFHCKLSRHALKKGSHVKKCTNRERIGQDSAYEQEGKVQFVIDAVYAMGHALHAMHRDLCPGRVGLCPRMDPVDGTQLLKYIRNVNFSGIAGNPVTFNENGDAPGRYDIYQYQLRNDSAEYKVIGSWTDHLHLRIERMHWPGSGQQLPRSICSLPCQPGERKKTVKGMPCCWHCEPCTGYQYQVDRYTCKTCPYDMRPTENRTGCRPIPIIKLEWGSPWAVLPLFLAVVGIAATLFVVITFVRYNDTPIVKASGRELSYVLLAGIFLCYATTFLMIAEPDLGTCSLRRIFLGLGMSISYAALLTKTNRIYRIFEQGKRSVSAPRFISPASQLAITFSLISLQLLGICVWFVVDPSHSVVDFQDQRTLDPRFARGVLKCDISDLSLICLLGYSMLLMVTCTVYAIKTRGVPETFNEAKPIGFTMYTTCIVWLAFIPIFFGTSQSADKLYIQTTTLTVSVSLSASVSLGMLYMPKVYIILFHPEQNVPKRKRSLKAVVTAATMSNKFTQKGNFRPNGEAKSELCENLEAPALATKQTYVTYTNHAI
UniProt P33261, whole entry: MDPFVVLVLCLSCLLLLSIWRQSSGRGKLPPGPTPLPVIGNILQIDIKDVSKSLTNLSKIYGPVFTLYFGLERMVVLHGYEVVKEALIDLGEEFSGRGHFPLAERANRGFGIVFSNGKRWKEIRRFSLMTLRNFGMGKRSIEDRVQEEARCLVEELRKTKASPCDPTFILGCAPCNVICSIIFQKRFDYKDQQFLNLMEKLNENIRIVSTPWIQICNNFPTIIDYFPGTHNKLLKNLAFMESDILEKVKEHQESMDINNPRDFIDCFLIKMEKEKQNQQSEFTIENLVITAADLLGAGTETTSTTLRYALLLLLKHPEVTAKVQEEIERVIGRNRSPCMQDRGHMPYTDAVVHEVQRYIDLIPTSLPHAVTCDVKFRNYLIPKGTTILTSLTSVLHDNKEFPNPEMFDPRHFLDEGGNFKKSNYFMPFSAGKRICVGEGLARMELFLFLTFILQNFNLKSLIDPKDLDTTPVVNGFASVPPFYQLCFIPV

The first experiment concerns the target Metabotropic glutamate receptor 4 (Homo sapiens, UniProt Q14833). Nature of the experiment: Positive allosteric modulator activity at human mGlu4 receptor expressed in CHO cells expressing Gqi5 by calcium mobilization assay. In general terms: A change in cytosolic calcium serves as a functional read-out for many receptors and channels.
What is called EC50 is the midpoint of the concentration-response curve. With `O=C(Nc1ccc(N2C(=O)c3cccc(Cl)c3C2=O)c(Cl)c1)c1ccccn1`, the EC50 came out at 41.9 nM. `O=C(Nc1ccc(N2C(=O)CC3(CCCCC3)C2=O)c(Cl)c1)c1ccccn1`: the EC50 stood at 158 nM. Same read-out and setting: as for `CC1(C)[C@@H]2C(=O)N(c3ccc(NC(=O)c4ccccn4)cc3Cl)C(=O)[C@@H]21`, the figure is 435 nM; as for `O=C(Nc1ccc(N2C(=O)c3ccccc3C2=O)c(Cl)c1)c1ccccn1`, 59.4 nM; as for `O=C(Nc1ccc(N2C(=O)[C@H]3CCCC[C@H]3C2=O)c(Cl)c1)c1ccccn1`, 370 nM. With `O=C(Nc1ccc(N2C(=O)[C@@H]3[C@H](C2=O)[C@H]2C=C[C@@H]3CC2)c(Cl)c1)c1ccccn1`, the concentration giving a half-maximal response (EC50) amounted to 287 nM. Still for that read-out and setting: under `O=C(Nc1ccc(N2C(=O)CC(c3ccccc3)C2=O)c(Cl)c1)c1ccccn1` (racemic) stands 674 nM; under `CC1(c2ccccc2)CC(=O)N(c2ccc(NC(=O)c3ccccn3)cc2Cl)C1=O` (racemic), 771 nM.

The target of another experiment is Cytochrome P450 2C19 (Homo sapiens, UniProt P33261). Briefly: Inhibition of CYP2C19 in human liver microsomes using S-mephenytoin as substrate. In kind it is ADME, Microsome. An outline of the steps: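 Human liver microsomes (0.1 mg/mL) with S-mephenytoin 40 µM in 0.1 M phosphate pH 7.4; compound 100 nM–30 µM in duplicate, 15 min preincubation at 37 °C, then 1 mM NADPH for 30 min. 4-Hydroxymephenytoin measured by LC/MS/MS; IC50 derived.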
Background: Liver microsomes are vesicles of endoplasmic reticulum, rich in cytochrome P450 enzymes.
One may read the IC50 as the concentration at which inhibition is half-maximal. Lower therefore signals greater potency. Take `O=C(Nc1ccc(N2C(=O)CC3(CCCCC3)C2=O)c(Cl)c1)c1ccccn1`: the IC50 is > 30000 nM.
